{
  "source": "patent US8431614B2",
  "about": "(LTT Bio-Pharma Co., Ltd., priority 2009, dated 2013)",
  "test_system": "male Wister rats",
  "test": "Formation of a gastric ulcer induced by a loxoprofen derivative (ulcer index, gastric mucosa PGE2)",
  "settings": "oral, tested form: sodium salt; for ulcer index (total area of gastric ulcers) / formation of an ulcer: rats fasted 18 hours, 8 hours after dosing, amount equivalent to 40 or 50 mg/kg of loxoprofen (FIGS. 1, 2); for amount of the gastric mucosa PGE2: rats, amount equivalent to 40 mg/kg of loxoprofen, ELISA (FIG. 3)",
  "data": [
    {"smiles": "CC(C(=O)O)c1ccc(CC2CCCC2=O)cc1-c1ccc(N)cc1", "note": "(centres unmarked)", "values": [
      {"measurement": "ulcer index (total area of gastric ulcers) / formation of an ulcer", "value": "hardly observed"},
      {"measurement": "amount of the gastric mucosa PGE2", "value": "more than that when loxoprofen was used"}
    ]},
    {"smiles": "CC(C(=O)O)c1ccc(CC2CCCC2=O)cc1Br", "note": "(centres unmarked)", "values": [
      {"measurement": "amount of the gastric mucosa PGE2", "value": "more than that when loxoprofen was used"}
    ]},
    {"smiles": "CC(C(=O)O)c1ccc(CC2CCCC2=O)cc1-c1ccc(O)cc1", "note": "(centres unmarked)", "values": [
      {"measurement": "ulcer index (total area of gastric ulcers) / formation of an ulcer", "value": "hardly observed"},
      {"measurement": "amount of the gastric mucosa PGE2", "value": "more than that when loxoprofen was used"}
    ]}
  ]
}
